EP0799188B1, “AMIDES OF MONO AND DICARBOXYLIC ACIDS WITH GLYCOSAMINES, SELECTIVELY ACTIVE ON THE CANNABINOID PERIPHERAL RECEPTOR” (LIFEGROUP S.p.A., priority 1994, dated 1996)

Legend:
CB2 receptor = target: T1, CB2 receptor (Rattus norvegicus, UniProt Q9QZN9); assay: 3H-WIN 55,212-2 binding displacement on RBL-2H3 cell membranes; conditions: IC50 (nM), 1% DMSO, means ± SEM
T1 construct: 30 µg membrane proteins prepared in item a); endogenous in cells; host or cells: RBL-2H3 cells (plasma membrane preparation)
T1 sequence (Q9QZN9 1-360): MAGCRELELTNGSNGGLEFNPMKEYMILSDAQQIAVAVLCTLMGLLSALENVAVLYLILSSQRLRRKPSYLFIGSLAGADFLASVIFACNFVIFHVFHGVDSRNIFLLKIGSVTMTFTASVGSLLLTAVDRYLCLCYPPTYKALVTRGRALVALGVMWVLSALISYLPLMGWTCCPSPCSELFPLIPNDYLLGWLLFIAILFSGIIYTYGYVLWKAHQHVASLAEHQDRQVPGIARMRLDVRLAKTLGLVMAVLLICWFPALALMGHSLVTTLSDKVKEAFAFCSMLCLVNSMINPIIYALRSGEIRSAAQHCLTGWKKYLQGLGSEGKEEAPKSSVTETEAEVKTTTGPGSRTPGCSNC

RBL-2H3 cells = assay: 3H-serotonin release induced by ADNP/DNP.HSA immunogenic stimulation; format: cell-based, rat; conditions: 25µM; 0.1% DMSO and 0.1% ethanol

Row | SMILES | IC50 (CB2 receptor) [nM] | 3H-serotonin net release (%) (RBL-2H3 cells)
1 | CCCCC/C=C\C/C=C\C/C=C\C/C=C\CCCC(=O)NCCO [Anandamide, arachidonylethanolamide, reference compound] | 33 ± 29 | –
2 | CCCCCc1cc(O)c2c(c1)OC(C)(C)C1CC=C(C)CC21 (centres unmarked) [Δ 8-THC, Δ8-tetrahydrocannabinol, reference compound] | – | 0
